{
  "source": "patent US12320799B2",
  "about": "“Methods of measuring signaling pathway activity for selection of therapeutic agents” (Celcuity Inc., priority 2017, dated 2025)",
  "key": {"[1]": {"test_system": "HER1, HER3 and c-Met pathways", "assay": "CELx test of multiple pathways simultaneously (EGF, NRG1, HGF in combination), impedance biosensor", "type": "cell-based, human", "text": "Biosensor and transducer: A 96-well impendence E-Plate (ACEA, San Diego, CA) was placed onto an xCELLigence RTCA MP Station impendence biosensor (ACEA, San Diego, CA). The biosensor measured simultaneously the impedance of every well. The change in impedance for a particular well is proportional to the number of cells and type of attachment the cells have with the impedance microplate. Changes in impedance indicate a response to perturbation of these small cell populations. Coatings: The 96-E-Plate were wells were coated with fibronectin and or collagen. Collagen is purchased from Advanced BioMatrix (Carlsbad, CA) and fibronectin from Sigma-Aldrich (St. Louis, MO). Tissue and cell samples: Six samples of human tumor cells from breast cancer were studied (C1815, C1596, C1838, C135, C42, C264). Any biomarkers that are used to guide selection of targeted therapy are listed in Table 22 for each patient if they were present. Signaling Pathways activator agent and targeted therapeutic pairs: In each human tumor cell sample, gross signaling activity of the HER1, HER3 and c-Met pathways initiated by three activator agents (EGF, NRG1, HGF) in combination was quantified. […] Each of the signaling pathway activator agents is a well-characterized and specific agonist of its associated signaling pathway. […] The fifth targeted therapeutic tested, taselisib, is an inhibitor that binds to PI3k, which downstream of the HER family and c-Met receptors. Other Reagents: Standard media, antibiotics (e.g. penicillin, streptomycin), and other buffers were purchased and used as delivered from ATCC (Manassas, VA, USA) or Life Technologies (Grand Island, NY). Procedure:\nFor each test of a patient cell sample with a signaling pathway activator(s) and targeted therapeutic agent(s), six or eight wells were seeded with approximately 15,000 cells in 120 uL culture media; six wells were seeded when only a single drug was evaluated and eight wells were seeded when two drugs were evaluated. When only a single drug was evaluated, 20 uL of the targeted therapeutic agent was added to two wells of each patient's cells and the final concentration of the therapeutic agent in the two wells with the single therapeutic agent was 500 nanomolar. When two therapeutic agents were evaluated, two wells of patient cells received 20 uL of the combined therapeutic agents at a concentration of 500 nanomolar each and an additional two wells of patient cells received 20 uL of the combined therapeutic agents at a concentration of 50 nanomolar each. Twenty microliters of standard media were added to the other four wells for each patient 18 hours in advance of addition of the signaling pathway activator agent(s). Signaling pathway stimulation was initiated with the addition of 20 ul of the signaling pathway activator agent(s) in the two or four wells that received a targeted therapeutic agent(s) and two additional wells for each patient's set of cells. The impedance recording of attachment and adhesion change was performed at 37° C., 5% CO2. Data was recorded on a continuous basis throughout the test, where the data presented if from the initial baseline level of cell attachment compared to the subsequent effects following the targeted therapeutic agent(s) and the signaling pathway activator agent(s) additions on the nine different patient samples.\nFor each of the six patient samples, three different signaling pathways (HER1, HER3, c-Met) were activated simultaneously. The output value represents the difference between the amount of cell adhesion change resulting from addition of the signaling pathway activator agent(s) and the amount of cell adhesion change resulting from addition of the targeted therapeutic agent(s)."}, "C21 cells": {"test_system": "C21 cells", "assay": "Mouse xenograft study with C21 tumor cells", "type": "in vivo", "settings": "female NSG mice xenografted with C21 cells; after 16 days of treatment"}},
  "data": [
    {"compound": "CN1CCC(COc2cnc(-c3cccc(Cn4nc(-c5cccc(C#N)c5)ccc4=O)c3)nc2)CC1", "note": "[tepotinib]", "values": [
      {"measurement": "Output value (cell adhesion change, activator agents minus targeted therapeutic agent(s))", "setting": "[1]; breast cancer patient sample C42, agent(s) 500 nM each", "result": 223},
      {"measurement": "Output value (cell adhesion change, activator agents minus targeted therapeutic agent(s))", "setting": "[1]; breast cancer patient sample C135, agent(s) 500 nM each", "result": 73},
      {"measurement": "Output value (cell adhesion change, activator agents minus targeted therapeutic agent(s))", "setting": "[1]; breast cancer patient sample C264, agent(s) 500 nM each", "result": 172},
      {"measurement": "Output value (cell adhesion change, activator agents minus targeted therapeutic agent(s))", "setting": "[1]; breast cancer patient sample C1596, agent(s) 500 nM each", "result": 330},
      {"measurement": "Output value (cell adhesion change, activator agents minus targeted therapeutic agent(s))", "setting": "[1]; breast cancer patient sample C1815, agent(s) 500 nM each", "result": 473},
      {"measurement": "Output value (cell adhesion change, activator agents minus targeted therapeutic agent(s))", "setting": "[1]; breast cancer patient sample C1838, agent(s) 500 nM each", "result": 12},
      {"measurement": "tumor volume reduction relative to the control", "setting": "C21 cells", "result": 10, "unit": "%"}
    ]}
  ]
}
